Experimental data reported in article PMC10400593, “Molecular insights into Spindlin1-HBx interplay and its impact on HBV transcription from cccDNA minichromosome” (Nature Communications, 2023).

Tests used:
human Spindlin1_50–262 = human Spindlin1_50–262 (Homo sapiens, UniProt Q9Y657); format: binding; design: Human Spindlin1_50–262 was cloned into pGEX-6P-1 vector containing an N-terminal GST tag; GST (N, cleaved yes); made in house; host or cells: E. coli BL21(DE3); conditions: free wild-type Spindlin1_50–262
Method: Cells were harvested and lysed in lysis buffer: 0.2 M NaCl, 20 mM Tris, pH 8.0 containing 1 mM fresh PMSF. After centrifugation, the GST-tagged Spindlin1_50–262 was purified by a GST affinity column and then the GST tag was cleaved on-column by a home-made P3C protease overnight. The tag-free protein was collected for an anion-exchange chromatography over a HiTrap Q HP column and Superdex G75 columns (GE Healthcare). The Spindlin1_50–262 protein was concentrated to 25 mg/ml in 0.15 M NaCl, 20 mM Tris, pH 8.0, aliquoted and stored at −80 °C for future use. All Spindlin1_50–262 mutants were generated by the QuikChange site-directed mutagenesis strategy and purified using the same procedure as described above.
(§1) Calorimetric experiments were conducted at 25 °C with a MicroCal PEAQ-ITC instrument (Malvern Instruments) as previously described. The Spindlin1_50–262 samples were extensively dialyzed against the buffer containing 20 mM HepesNa (pH 7.5) and 150 mM NaCl. Protein concentration was determined by absorbance spectroscopy at 280 nm. Peptide concentrations were determined by weighing in large quantities. Each ITC titration consisted of 17 successive injections with 0.4 μl for the first and 2.4 μl for the rest. The intervals between injections were 180 s, and the stirring speed was 750 rpm. […] Acquired calorimetric titration data were fitted at 95% confidence and analyzed using Origin 7.0 (GE Healthcare) using the One Set of Binding Sites fitting model. Data represent the mean ± SE. Detailed thermodynamic parameters of each titration are summarized in the Supplementary Table 2.

[1] = molecular target: Spindlin1_50-262 & HBx2-21 (Homo sapiens, UniProt Q9Y657); conditions: versus free Spindlin1_50–262
Method: Cells were harvested and lysed in lysis buffer: 0.2 M NaCl, 20 mM Tris, pH 8.0 containing 1 mM fresh PMSF. […] The tag-free protein was collected for an anion-exchange chromatography over a HiTrap Q HP column and Superdex G75 columns (GE Healthcare).
as §1, with “Protein” for “Calorimetric experiments were conducted at 25 °C with a MicroCal PEAQ-ITC instrument (Malvern Instruments) as previously described. The Spindlin1_50–262 samples were extensively dialyzed against the buffer containing 20 mM HepesNa (pH 7.5) and 150 mM NaCl. Protein”

Spindlin1 = experiment: Co-immunoprecipitation of Flag-Spindlin1 with HA-HBx, HEK 293 T cells; format: cell-based, human; conditions: anti-Flag M2 beads, WB

Substance	Binding in words (ITC) (human Spindlin1_50–262)	Change of histone peptide affinity on HBx2–21 engagement [1]	also measured
AARLCCQLDSSRDVLLLRPL-NH2 [GSHBx, ground squirrel HBx N-terminal motif peptide]	micromolar level binding	–	–
AARLCCQLDSARDVLLLRPF-NH2 [WHx, woodchuck HBx N-terminal motif peptide]	micromolar level binding	–	–
ARTK(m e3)QTAR(me2a)KSTGGKAPRKQL-NH2 [H31-20 K4me3R8me2a]	–	unchanged affinities	–
ARTK(m e3)QTARK(me2)STGGKA-NH2 [H31-15 K4me3K9me2]	–	about threefold enhancement in binding	–
HBx: full-length HA-tagged WT HBx	–	–	Interaction with Spindlin1 (Co-IP) (Spindlin1): confirmed in HEK 293 T cells by immunoprecipitation assay
AARLCCQLDPARDVLCLRPV-NH2 [HBx-D2-21, HBx-D N-terminal motif peptide]	micromolar level binding	–	–
Ac-GKGGAKRHRK (me3)VLRDNIQGIT-NH2 [H411-30 K20me3]	–	unchanged affinities	–
